Test [1] relates to 107 antibody. The experiment in a line: FACS of antibody binding to peptides pulsed onto DQ2.5+ Raji cells, 107 antibody. The following applies: 50 μM peptide pulsed onto human DQ2.5+ Raji cells. The test is classed as cell-based. The procedure: (§1) Assessment of antibody binding to the A0A0E3SZN6_TRIUA epitope candidate. […] The indicated peptides (50 μM) were pulsed onto human DQ2.5*Raji cells and antibody binding was tested in FACS as described (B).
(§2) Assessment of antibody binding to the physiological relevant forms of the A0A0E3SZN6_TRIUA epitope candidate. The T. urartuA0A0E3SZN6_TRIUA (A) and T. aestivum Q9M4L6_WHEAT (B) sequences were in silico digested with tryspin and chymotrypsin, and the relevant digested fragments shown underlined (A and B). […] The known P positions are indicated (C). The indicated peptides were pulsed (50 μM) onto human DQ2.5*Raji cells and antibody binding was tested in FACS as described (D).
(§3) To identify putative gliadin-derived sequences different from, but with similarity to, the 30 DOQ.2.5-glia-α1a epitope (PFPQP{right arrow over (E)}LPY (SEQ ID NO:4)), the UniProtKB protein database was searched using the ScanProsite tool (https://prosite.expasyorg/scanprosite/). […] More specifically, we fixed the proline (P) in p1, the glutamine (Q) in p6, the tyrosine (Y) in p9, and P was disallowed in the position p10 after the p9 Y (underlined). To focus the output of the searches, we restricted the output to the Triticum taxonomic group. […] In some cases, Q residues were exchanged with glutamate (E) in the peptide synthesis in order to mimic positional deamidation.

The subject of test [2] is 4.7C antibody. The experiment in a line: FACS of antibody binding to peptides pulsed onto DQ2.5+ Raji cells, 4.7C antibody. The test is classed as cell-based. The following applies: 50 μM peptide pulsed onto human DQ2.5+ Raji cells. Here is the method:
as §1, §2, §3

Consider “QLQPFPQPELPY (SEQ ID NO:53) [DQ2.5-glia-α1a, reference compound]”, for which the “binding of 107 antibody to peptide-pulsed Raji cells (FACS)” value in test [1] was “low level binding”. Besides, the “binding of 4.7C antibody to peptide-pulsed Raji cells (FACS)” value in test [2] was “low level binding”.

(Values after patent publication US20240400692A1, “CELIAC DISEASE EPITOPES” (NEXTERA AS, priority 2021, published 2024).)
